# Experimental data as given in patent publication US20210308182A1, “REGULATORY T CELL EPITOPES” (EpiVax Inc., priority 2020, published 2021).
# System: response to OVA immunization
# Experiment: OVA immunization of mice treated with HSA-Tregitope conjugates or free maleimide-Tregitope
# Type: in vivo, mouse
# Settings: female C57BL/6 mice, OVA day 0 (CFA) and day 14 (IFA), sacrifice Day 17; splenocytes stimulated with OVA
# Procedure: The effect on the response to OVA immunization of preformed conjugate HSA-Tregitope therapeutics and a free-maleimide-Tregitope peptide is evaluated. The latter free-maleimide peptide forms a conjugation in vivo after injection via the reactive maleimide group to the free-Cys34 of the subject's endogenous HSA. 5 mgs of the MPA-P2 and MPA-P12 is used as free-MPA-Tregitope, with the unconjugated HSA in the sample being accounted for by calculating the molar ratio of conjugated to unconjugated HSA.
# Mice (female C57BL/6) are immunized s.c. with 50 mg ovalbumin (OVA) on day 0 (CFA) and day 14 (IFA). The preformed HSA conjugate treatments is administered with the OVA in CFA on day 0. Test groups include OVA/HSA-P2-high and OCA/HSA-P2-low. […]
# For T-cell proliferation and characterization assays, splenocyte samples are evaluated for induction of FoxP3 expression in TCR Tg cells and for the suppression of OVA specific T cell proliferation (in response to OVA peptide in vitro) by CFSE dilution. […]
# Antigen-specific T cell proliferation is evaluated by CFSE dilution. […] Cells are be fixed, permeabilized and stained for FoxP3 expression and analyzed by flow cytometry. […]
# Anti-OVA antibodies in serum from the bleeds harvested on day 17 are evaluated in serum by ELISA, including a serial dilution plot and a standard ELISA to determine antibody concentrations. […]
substance,measurement,value
"HSA: recombinant human serum albumin (Albucult), carrier and HSA-only control",IFNγ production (IFNγ/IL2 and IFNγ/IL17 fluorospot),inhibited less
